{"source": "patent US11866515B2", "about": "“Hemiasterlin derivatives for conjugation and therapy” (priority 2015, dated 2024)", "system": "SKBR3", "assay": "Tumor cell line assay (cell killing, Cell Titer-Glo), SKBR3", "type": "cell-based", "conditions": "trastuzumab conjugates, SKBR3 cells (FIG. 1)", "method": "Relative luminescence was measured on an ENVISION® plate reader (Perkin-Elmer; Waltham, Mass.). Relative luminescence readings were converted to percent viability using untreated cells as controls.", "data": [{"substance": "Trastuzumab: trastuzumab, unconjugated antibody control", "values": [{"measurement": "IC50", "value": 10, "unit": "nM"}]}]}
